# Measured affinities in a library of Ab-14 heavy chain variants

All variants were tested on one target, the spike HR2 peptide PDVDLGDISGINAS (SARS-CoV-2).

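Phage display of a naive human antibody library on the peptide gave the parent. In library AAYL49, one, two or three CDR residues were substituted; doubles and triples were drawn at random. Affinity was read by AlphaSeq, a pooled yeast mating assay with surface-displayed partners. Binding brings cells together so that they mate, and sequencing counts the barcode pairs among the diploids. Scores were corrected for input abundance and mapped to Kd with protein pairs of known affinity run in the same pool. Mating was done three times.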

Parent: Ab-14, a human scFv built as VH, the linker GGGGSGGGGSGGGGS, VL. Only the CDRs of the heavy chain vary.
VH: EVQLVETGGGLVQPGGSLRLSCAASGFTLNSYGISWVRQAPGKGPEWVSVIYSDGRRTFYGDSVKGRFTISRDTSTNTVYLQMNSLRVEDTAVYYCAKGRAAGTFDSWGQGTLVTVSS
VL: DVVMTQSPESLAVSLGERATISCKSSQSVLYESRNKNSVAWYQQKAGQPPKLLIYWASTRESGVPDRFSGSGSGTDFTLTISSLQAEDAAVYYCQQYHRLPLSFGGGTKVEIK

Substitutions are numbered in sequence along the VH above, starting at 1 (not Kabat).
Values are log10 of the apparent Kd in nM; lower means stronger binding.
A mean of the replicates is given; it leaves out those without a signal.
An entry "nd" has no value in the source: the pair was not observed among the diploids in that replicate. This suggests poor binding but is not conclusive.
Nonspecific signal, from three strains lacking the peptide, appeared in 15% of pairings of library AAYL49, centred on 4.06 (5% of these signals below 2.83); values are not corrected for it. The control count says in how many pairings with the empty strains this scFv gave a signal, with their mean in brackets.

| changes | replicates, log10 nM | log10 Kd (nM), mean | signal with controls |
|---|---|---|---|
| G26V+Y60M+A102N | nd / nd / nd | nd | 1 of 9 (2.08) |
| I34A+Y52S+D54C | nd / 4.62 / nd | 4.62 | 3 of 9 (3.76) |
| D54I+G103P+T104V | nd / nd / nd | nd | 4 of 9 (3.92) |
| I51W+G55V+R100V | nd / nd / nd | nd | 0 of 9 |
| N30Q+K65R | 0.81 / 0.96 / 1.07 | 0.94 | 1 of 9 (3.22) |
| Y52N+F105L+D106R | nd / nd / nd | nd | 1 of 9 (2.73) |
| V50H+G61F+V64L | nd / nd / nd | nd | 2 of 9 (3.04) |
| D54M+R57P+T104F | nd / nd / nd | nd | 1 of 9 (1.78) |
| G26L+T58M | 3.67 / 3.29 / 4.08 | 3.68 | 6 of 9 (4.28) |
| G26R+G55N+A101W | 3.19 / nd / 5.14 | 4.16 | 1 of 9 (2.79) |
| Y32V+Y60I | nd / nd / nd | nd | 3 of 9 (4.14) |
| F27A+S31L+F59W | nd / nd / nd | nd | 0 of 9 |
| D62Q+R100E+A102E | nd / nd / 4.92 | 4.92 | 3 of 9 (3.54) |
| G33S+Y60S+A101E | nd / nd / nd | nd | 1 of 9 (4.57) |
| I51Y+G55N | nd / nd / nd | nd | 1 of 9 (4.03) |
| D54P+V64G+D106L | nd / nd / nd | nd | 1 of 9 (3.27) |
| F27E+G55V+G103H | nd / 4.76 / 4.99 | 4.88 | 5 of 9 (4.48) |
| T58H+F59M+D106T | nd / nd / nd | nd | 0 of 9 |
| I34V+K65E+A102E | nd / nd / nd | nd | 0 of 9 |
| D54S+G55Y+T58M | nd / 5.23 / nd | 5.23 | 2 of 9 (3.94) |
| G55Y+K65Q+R100D | nd / nd / 5.86 | 5.86 | 3 of 9 (4.47) |
| V50F+D54P+Y60H | nd / nd / nd | nd | 0 of 9 |
| V50I+D54F | nd / nd / 3.44 | 3.44 | 1 of 9 (3.28) |
| V50Q+I51P+K65S | nd / nd / nd | nd | 1 of 9 (2.80) |
| L29N+R100Y+A102D | nd / 4.21 / nd | 4.21 | 0 of 9 |
| T28P+L29Q+A102E | nd / nd / nd | nd | 0 of 9 |
| S31N+I51C+R57K | nd / nd / nd | nd | 0 of 9 |
| I51G+F59L+F105G | nd / nd / nd | nd | 1 of 9 (3.91) |
| G26L+N30T+Y52V | nd / nd / nd | nd | 0 of 9 |
| R56Q+T58P+V64F | 6.38 / 4.17 / nd | 5.27 | 6 of 9 (4.69) |
| G33V+V50Y+G55A | nd / nd / nd | nd | 0 of 9 |
| I34Y+G61W+R100M | nd / nd / nd | nd | 0 of 9 |
| F27C+A102D | nd / nd / nd | nd | 3 of 9 (4.14) |
| L29D+F59G+G99W | nd / nd / nd | nd | 2 of 9 (3.84) |
| Y32S+G55C+F105N | nd / 3.69 / nd | 3.69 | 3 of 9 (3.80) |
| T28D+I51Y+S107L | 2.58 / nd / 3.58 | 3.08 | 1 of 9 (3.64) |
| N30K+Y32S+G55K | 5.44 / 4.26 / nd | 4.85 | 2 of 9 (4.42) |
| N30I+T58W+S107F | nd / nd / nd | nd | 2 of 9 (4.13) |
| I34V+K65W+G99T | 1.64 / 2.43 / 1.68 | 1.92 | 2 of 9 (4.08) |
| Y32P+S35P+S53Y | nd / nd / nd | nd | 1 of 9 (4.50) |

The last 6 entries again:

| changes | replicates, log10 nM | log10 Kd (nM), mean | signal with controls |
|---|---|---|---|
| Y32S+G55C+F105N | nd / 3.69 / nd | 3.69 | 3 of 9 (3.80) |
| T28D+I51Y+S107L | 2.58 / nd / 3.58 | 3.08 | 1 of 9 (3.64) |
| N30K+Y32S+G55K | 5.44 / 4.26 / nd | 4.85 | 2 of 9 (4.42) |
| N30I+T58W+S107F | nd / nd / nd | nd | 2 of 9 (4.13) |
| I34V+K65W+G99T | 1.64 / 2.43 / 1.68 | 1.92 | 2 of 9 (4.08) |
| Y32P+S35P+S53Y | nd / nd / nd | nd | 1 of 9 (4.50) |

From the AlphaSeq antibody data of Engelhart et al. 2022 (doi:10.1038/s41597-022-01779-4), copy in the FLAb collection.